System: murine dermal fibroblasts
Assay: RNA-Seq of newborn murine dermal fibroblasts
Format: cell-based, mouse
Conditions: 10^−7 M, 24 h
Description: All animal studies followed guidelines outlined by the NIH Guide for the Care and Use of Laboratory Animals and protocols were approved by the Institutional Animal Care and Use Committee at the NIEHS or the UAB. The study was carried out in compliance with the ARRIVE guidelines (http://www.nc3rs.org.uk/page.asp?id=1357). Skin samples from newborn C57BL/6 mice were collected at the NIEHS. Dermal fibroblasts were isolated from the skin of newborn mice, 1–2 day old. Briefly, we followed the protocols described previously. The skin was washed in PBS, cut into smaller pieces and incubated in 2.4 U/ml of dispase II (Roche) overnight at 4 °C. The dermis was separated from the epidermis and incubated in 0.1% collagenase (Roche) at 4 °C overnight. Next day, it was cut into smaller pieces and incubated for 1 h in 0.25% Trypsin (CellGrow) at 37 °C. Single cell suspension was prepared by pipetting and draining through a cell strainer. After centrifugation, cell pellets were suspended in DMEM medium containing 10% charcoal-stripped fetal bovine serum (cFBS), mouse fibroblasts growth factor (FGF) and 1% antibiotic, and inoculated into tissue culture dishes (Midwest Scientific, TPP). Cells, in early passages, from different mice were pooled together to provide representative samples for experiments. Fibroblasts were cultured in Petri dishes (10 cm in diameter) in DMEM and 10% cFBS and triplicate semi-confluent cultures were treated as described.
Triplicate cultures of murine fibroblasts were used for RNA isolation (RNAeasy Micro kit, Qiagen), the RNA samples were combined for each condition and at least 200 ng of RNA for each sample was used to create libraries for RNA sequencing by BGI Americas Corporation Service (Cambridge, MA)[67]. Quality of RNA and its concentration were determined using Agilent 2100.
The raw sequence FASTQ files were aligned to Gencode’s GRCm38 p4 Release M11 genome using STAR version 2.5.4b (parameters used: –outReadsUnmapped Fastx; –outSAMtype BAM SortedByCoordinate; –outSAMattributes All; –outFilterIntronMotifs RemoveNoncanonicalUnannotated)[69]. The abundance of transcripts was calculated from the alignments using Cufflinks version 2.2.1 (parameters used: –G; –L; –library-type fr-firststrand). Samples were merged using default parameters with Cuffmerge[70],[71]. The differential expression was calculated using Cuffdiff’s default parameters. The raw data have been deposited at the NCBI GEO (GSE145818).

With `C=C1/C(=C\C=C2/CCC[C@]3(C)[C@@H]([C@H](C)CCCC(C)(C)O)CC[C@@H]23)C[C@@H](O)C[C@@H]1O` [1,25(OH)2D3] the “Adh7 log2(fold_change) vs control” value was 2.0183, the “Aqp11 log2(fold_change) vs control” value was 2.094 and the “Arid3b log2(fold_change) vs control” value was -1.426. For the same molecule, the “Bicd1 log2(fold_change) vs control” value was -1.552, the “Btc log2(fold_change) vs control” value was 1.97 and the “Car9 log2(fold_change) vs control” value was -1.495. The “Cbs log2(fold_change) vs control” value was -2.219, the “Ccl4 log2(fold_change) vs control” value was “-inf” and the “Cd68 log2(fold_change) vs control” value was 2.205. The “Cd200 log2(fold_change) vs control” value was -1.825, the “Cherp log2(fold_change) vs control” value was -2.397 and the “Clec2g log2(fold_change) vs control” value was “-inf”. For the same molecule, the “Cnnm4 log2(fold_change) vs control” value was -2.074, the “Cox15 log2(fold_change) vs control” value was 1.392 and the “Cpa2 log2(fold_change) vs control” value was -2.331. The “Ctrl log2(fold_change) vs control” value was -1.577, the “Dcun1d1 log2(fold_change) vs control” value was -1.0358 and the “Defb42 log2(fold_change) vs control” value was -1.991. For the same molecule, the “Dtx1 log2(fold_change) vs control” value was -2.725, the “Ehf log2(fold_change) vs control” value was -1.559 and the “Ercc2 log2(fold_change) vs control” value was -3.616. For the same molecule, the “Erh log2(fold_change) vs control” value was -1.208, the “Fmnl1 log2(fold_change) vs control” value was -4.405 and the “Gys2 log2(fold_change) vs control” value was “-inf”. For the same molecule, the “Hist1h2ab log2(fold_change) vs control” value was 1.991, the “Hist1h2bg log2(fold_change) vs control” value was -2.009 and the “Hist1h2bh log2(fold_change) vs control” value was “-inf”. For the same molecule, the “Hist1h4c log2(fold_change) vs control” value was “-inf”, the “Isl1 log2(fold_change) vs control” value was -1.839 and the “Krt19 log2(fold_change) vs control” value was 1.562. The “Larp1b log2(fold_change) vs control” value was -3.231, the “Lhx6 log2(fold_change) vs control” value was -1.589 and the “Lsm5 log2(fold_change) vs control” value was -1.432. For the same molecule, the “M1ap log2(fold_change) vs control” value was 1.472, the “Med9os log2(fold_change) vs control” value was -1.409 and the “Nckipsd log2(fold_change) vs control” value was 1.89. For the same molecule, the “Nr3c2 log2(fold_change) vs control” value was -2.823, the “Nr6a1 log2(fold_change) vs control” value was -2.368 and the “Ntrk3 log2(fold_change) vs control” value was “-inf”. The “Parvg log2(fold_change) vs control” value was -3.218, the “Pde4dip log2(fold_change) vs control” value was -7.609 and the “Psd4 log2(fold_change) vs control” value was -1.114. The “Ptpa log2(fold_change) vs control” value was 1.829, the “Ptpn6 log2(fold_change) vs control” value was -2.246 and the “Rnu3a log2(fold_change) vs control” value was “-inf”. The “Rpph1 log2(fold_change) vs control” value was -1.009, the “Rsad1 log2(fold_change) vs control” value was -1.12 and the “Saa1 log2(fold_change) vs control” value was -2.331. For the same molecule, the “Samd12 log2(fold_change) vs control” value was -2.281, the “Scn8a log2(fold_change) vs control” value was -1.158 and the “Sgca log2(fold_change) vs control” value was -1.706. The “Slc15a4 log2(fold_change) vs control” value was -1.459, the “Slc16a5 log2(fold_change) vs control” value was -2.417 and the “Snhg9 log2(fold_change) vs control” value was -2.331. For the same molecule, the “St7 log2(fold_change) vs control” value was -1.115, the “Stmn1 log2(fold_change) vs control” value was 1.247 and the “Susd1 log2(fold_change) vs control” value was 1.6295. The “Syt8 log2(fold_change) vs control” value was -1.076, the “Syt12 log2(fold_change) vs control” value was -2.052 and the “Tldc2 log2(fold_change) vs control” value was -1.225. For the same molecule, the “Tnnc2 log2(fold_change) vs control” value was “-inf”, the “Unc5c log2(fold_change) vs control” value was -1.742 and the “Wdr17 log2(fold_change) vs control” value was -1.642. For the same molecule, the “Zbtb18 log2(fold_change) vs control” value was -2.985 and the “Zfp618 log2(fold_change) vs control” value was -1.519.

From article PMC8044163, “Vitamin D and lumisterol derivatives can act on liver X receptors (LXRs)” (Scientific Reports, 2021)
